Test system: Colon Cancer Cells HCT-15
Experiment: MTS cell viability assay
Details: HCT-15, 4 hr; combinations with Elemene 160 μg/ml, n = 8

IC50: 93.0 ± 9.11 µg/mL
Compound: O=c1[nH]cc(F)c(=O)[nH]1 [Lr 5-Fu]
